The entries are a selection whose mix differs from that of the whole data set. Some salts and complexes are drawn in separate pieces, as the source files them; their charges need not balance. Active and inactive are the calls of the source.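 The calls were made as follows: active = activation above the run's mean compound activation plus 3 SD (cut at about 16% in these data); inactive = the rest.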
Biological target: Muscarinic acetylcholine receptor M1 (Homo sapiens) (UniProt P11229)
Assay: human M1 muscarinic receptor agonists, primary screen, Fluo-8 calcium fluorescence, CHO-K1 cells, HTS (AID 588814);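 also: peak over basal fluorescence ratio within a 140 s kinetic read after compound addition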
Conditions: CHO-K1 hM1, Fluo-8 calcium fluorescence, agonist mode; at 3 µM; stronger effect = higher value; 0% DMSO, 100% acetylcholine EC100

Amino acid sequences for entries named in this document (tags omitted).
UniProt P11229, whole entry: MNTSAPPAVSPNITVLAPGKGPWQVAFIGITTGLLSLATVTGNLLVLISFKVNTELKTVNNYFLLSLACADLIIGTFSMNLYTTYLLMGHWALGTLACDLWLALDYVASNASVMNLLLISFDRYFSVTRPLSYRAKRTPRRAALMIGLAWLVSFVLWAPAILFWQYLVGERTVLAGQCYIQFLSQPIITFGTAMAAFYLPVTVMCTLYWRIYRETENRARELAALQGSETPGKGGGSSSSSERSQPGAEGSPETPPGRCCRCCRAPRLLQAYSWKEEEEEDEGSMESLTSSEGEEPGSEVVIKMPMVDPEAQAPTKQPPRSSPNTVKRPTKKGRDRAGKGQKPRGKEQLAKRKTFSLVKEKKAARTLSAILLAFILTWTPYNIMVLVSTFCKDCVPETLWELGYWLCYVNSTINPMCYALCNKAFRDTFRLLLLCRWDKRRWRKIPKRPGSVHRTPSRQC

SMILES	activation
Cc1ccccc1NP(C)(=O)Nc1ccccc1C	inactive: -3.56%
CP(=O)(Nc1ccc2c(c1)OCCO2)Oc1ccccc1 (stereo not given)	inactive: -2.74%
CCOP(C)(=S)SCC(=O)NC(C)(CC)C(=O)O (stereo not given)	inactive: -1.58%
CP(=O)(Nc1ccc(SC(F)(F)F)cc1)Oc1ccc(F)cc1 (stereo not given)	inactive: -2.43%
Cc1c(C(c2ccc3c(c2)OCO3)c2c(C)n(C)n(-c3ccccc3)c2=O)c(=O)n(-c2ccccc2)n1C.O=[N+]([O-])c1cc([N+](=O)[O-])c(O)c([N+](=O)[O-])c1	inactive: -3.23%
Cc1cc(-c2cccc3ccccc23)c(C)cn1.O=[N+]([O-])c1cc([N+](=O)[O-])c(O)c([N+](=O)[O-])c1	inactive: -4.36%
O=[N+]([O-])c1cc([N+](=O)[O-])c(NCC2CCS(=O)(=O)C2)c([N+](=O)[O-])c1 (stereo not given)	inactive: -6.06%
O=[N+]([O-])c1ccc(OP2(=O)COCCO2)cc1 (stereo not given)	inactive: -4.52%
COc1ccc(NP(C)(=O)Oc2ccccc2OC)cc1 (stereo not given)	inactive: -1.84%
CN(C)CCOC(=O)C(O)(c1ccccc1)C1CCCCC1 (stereo not given)	inactive: -4.78%
CN(C)C1(CNC(=O)c2ccc(Cl)c(S(N)(=O)=O)c2)CCCCC1	inactive: -5.62%
COc1ccc(OP(C)(=O)Nc2cccc(Br)c2)cc1 (stereo not given)	inactive: -3.43%
O=[N+]([O-])c1cc([N+](=O)[O-])c(OC2CCCCC2O)c([N+](=O)[O-])c1 (stereo not given)	inactive: -2.32%
CCCCCOc1ccc(NP(C)(=O)Oc2ccc(Cl)cc2Cl)cc1 (stereo not given)	inactive: -2.2%
CP(=O)(Nc1ccccc1)Oc1ccc(F)cc1 (stereo not given)	inactive: -3.95%
CCN(CC)CCCOC(=O)C(O)(c1ccccc1)C1CCCCC1 (stereo not given)	inactive: -3.86%
Cc1c([N+](=O)[O-])cc([N+](=O)[O-])c(Br)c1[N+](=O)[O-]	inactive: -2.81%
COc1ccc(OP(C)(=O)Nc2ccc(SC(F)(F)F)cc2)cc1 (stereo not given)	inactive: -4.71%
CCOC(=O)c1ccc(NP(C)(=O)Oc2ccc(F)cc2)cc1 (stereo not given)	inactive: -3.08%
COc1ccc2c(c1O)-c1c(O)c(OC)cc3c1[C@H](C2)[N+](C)(C)CC3.O=[N+]([O-])c1cc([N+](=O)[O-])c([O-])c([N+](=O)[O-])c1[O-]	inactive: -0.21%
O=C(OCCN1CCN(CCOCc2ccccc2)CC1)C(O)(c1ccccc1)c1ccccc1	inactive: -8.53%
O=C(OC1CN2CCC1CC2)c1ccc([N+](=O)[O-])cc1 (stereo not given)	inactive: -7.57%
CC(C)c1ccc(OP(C)(=O)Nc2ccc(SC(F)(F)F)cc2)cc1 (stereo not given)	inactive: -13.3%
CP(=O)(Nc1ccccc1F)Oc1ccccc1 (stereo not given)	inactive: -3.64%
O=[N+]([O-])c1cc([N+](=O)[O-])c(Nc2ccc(Cl)cc2)c([N+](=O)[O-])c1	inactive: 3.06%

SMILES	activation
CCc1ccc(OP(C)(=O)O)cc1	inactive: -0.42%
COc1ccccc1OP(C)(=O)Nc1ccc(C)cc1C (stereo not given)	inactive: -0.37%
CP(=O)(Nc1ccccn1)Oc1ccccc1 (stereo not given)	inactive: -0.58%
Cc1c(NP(C)(=O)Oc2ccc(C(C)C)cc2)c(=O)n(-c2ccccc2)n1C (stereo not given)	inactive: -2.65%
O=[N+]([O-])c1cc([N+](=O)[O-])c(Nc2ccccn2)c([N+](=O)[O-])c1	inactive: -2.03%
CN(C)CCOC(=O)C(O)(c1ccccc1)C1CCCC1 (stereo not given)	inactive: -14%
COc1ccc(OP(C)(=O)Nc2ccccn2)cc1 (stereo not given)	inactive: -5.01%
COc1ccccc1OP(C)(=O)Nc1ccc(Br)cc1 (stereo not given)	inactive: -2.9%
CP(=O)(Nc1ccc(Cl)cc1Cl)Oc1ccccc1 (stereo not given)	inactive: -1.94%
CCCCCCCCCCCCCCCC1C[N+](C)(C)CCOP(C)(=O)O1 (stereo not given)	inactive: -1.88%
CP(=O)(OCCOc1ccccc1)OCCOc1ccccc1	inactive: -0.84%
COc1ccc(OP(C)(=O)Nc2ccccc2Br)cc1 (stereo not given)	inactive: -7.74%
COc1ccccc1OP(C)(=O)Nc1ccc(C)c(C)c1 (stereo not given)	inactive: -2.59%
Cc1cc(C)cc(OP(C)(=O)Nc2cccc(C(F)(F)F)c2)c1 (stereo not given)	inactive: -8.97%
O=C1C(O)=C([N+](=O)[O-])C(=O)C(O)=C1[N+](=O)[O-]	inactive: -3.77%
CP(=O)(OC12CC3CC(CC(C3)C1)C2)OC12CC3CC(CC(C3)C1)C2	inactive: 1.73%
CCOC(=O)c1ccc(NP(C)(=O)Oc2ccc(Cl)cc2)cc1 (stereo not given)	inactive: -5.35%
CN(C)C(=O)c1c([N+](=O)[O-])cc([N+](=O)[O-])cc1[N+](=O)[O-]	inactive: -1.77%
CP(=O)(Nc1ccc(Cl)cc1)Oc1ccc(F)cc1 (stereo not given)	inactive: -2.69%
COc1ccccc1OP(C)(=O)Nc1ccccc1Br (stereo not given)	inactive: -5.72%
CC(C)(C)c1ccc(OP(C)(=O)O)cc1	inactive: -2.13%
CCc1ccc(OP(C)(=O)Nc2cccnc2)cc1 (stereo not given)	inactive: -5.04%
CP(=O)(Oc1ccccc1)N1CCOC1=O (stereo not given)	inactive: -0.97%
O=C(OCCCN1CCCC1)C(O)(c1ccccc1)C1CCCCC1 (stereo not given)	inactive: -6.34%
COc1ccccc1OP(C)(=O)Nc1c(C)n(C)n(-c2ccccc2)c1=O (stereo not given)	inactive: -2.2%

SMILES	activation
COc1ccc(OP(C)(=O)Nc2ccc(Br)cc2)cc1 (stereo not given)	inactive: -7.64%
CCN(CC)CC(O)COC(=O)C(O)(c1ccccc1)C1CCCCC1 (stereo not given)	inactive: -3.49%
CP(=O)(Nc1ccccn1)Oc1ccc(Cl)cc1 (stereo not given)	inactive: -5.33%
CCOP(C)(=S)SCC(=O)NC(C)C(=O)O (stereo not given)	inactive: -2.07%
CCOC(=O)c1ccc(NP(C)(=O)Oc2ccc(OC)cc2)cc1 (stereo not given)	inactive: -6.51%
O=[N+]([O-])c1cc([N+](=O)[O-])c(O)c([N+](=O)[O-])c1.c1ccc(Oc2ccncc2)cc1	inactive: -1.62%
Cc1cc(C)cc(OP(C)(=O)Nc2ccc(SC(F)(F)F)cc2)c1 (stereo not given)	inactive: -5.03%
CP(=O)(NC(=O)Nc1ccccc1)Oc1ccccc1 (stereo not given)	inactive: 12.4%
CCc1ccc(OP(C)(=O)N2CCN(c3ccc([N+](=O)[O-])cc3)CC2)cc1 (stereo not given)	inactive: -0.51%
CP(=O)(Oc1ccccc1)OC(c1ccccc1)C(F)(F)F (stereo not given)	inactive: -6.83%
Cc1ccc(Nc2c([N+](=O)[O-])cc([N+](=O)[O-])cc2[N+](=O)[O-])cc1	inactive: -0.38%
Cc1cccc(C)c1OP(C)(=O)Nc1ccc(SC(F)(F)F)cc1 (stereo not given)	inactive: -7.38%
CP(=O)(Nc1ccc(SC(F)(F)F)cc1)Oc1ccc(Cl)cc1 (stereo not given)	inactive: -5.17%
COc1ccccc1OP(C)(=O)Nc1ccccc1 (stereo not given)	inactive: -3.23%
CP(=O)(Nc1ccccc1Br)Oc1ccccc1 (stereo not given)	inactive: -3.62%
CP(=S)(Nn1cnnc1)Oc1ccccc1 (stereo not given)	inactive: 0.89%
CCCCOc1ccc(C(=O)NCC2(N3CCCCC3)CCCCC2)cc1OC	inactive: -9%
COc1ccc(OP(C)(=O)Nc2cccc(F)c2)cc1 (stereo not given)	inactive: -3.61%
COc1ccccc1OP(C)(=O)Nc1cc(Cl)ccc1C (stereo not given)	inactive: -7.08%
Cc1cc(C)cc(OP(C)(N)=O)c1 (stereo not given)	inactive: -3.32%
CCOC(=O)c1ccc(NP(C)(=O)Oc2ccccc2)cc1 (stereo not given)	inactive: 0.07%
Cc1ccc(NP(C)(=O)Oc2ccccc2)c(C)c1 (stereo not given)	inactive: -3%
COc1ccccc1OP(C)(=O)Nc1ccc(C)cc1 (stereo not given)	inactive: -0.99%
Cc1cccc(C)c1OP(C)(N)=O (stereo not given)	inactive: -2.45%
CC(C)(C)c1ccc(OP(C)(=O)Nc2ccc(SC(F)(F)F)cc2)cc1 (stereo not given)	inactive: -9.03%

SMILES	activation
O=[N+]([O-])c1ccc2c(c1)C=Nc1ccccc1O2	inactive: -5.08%
O=[N+]([O-])c1cc([N+](=O)[O-])c(Nc2cccnc2)c([N+](=O)[O-])c1	inactive: 3.32%
COc1cc(C(=O)NCC2(N3CCOCC3)CCCCC2)ccc1OCC(C)C	inactive: -5.56%
CCN(CC)CCCOC(=O)C(O)(c1ccccc1)c1ccccc1	inactive: -6.89%
Cc1cc(C)cc(OP(C)(=O)Nc2ccccn2)c1 (stereo not given)	inactive: -3.01%
CP(=O)(Nc1cccc(Br)c1)Oc1ccccc1 (stereo not given)	inactive: -2.42%
Cc1ccc(C)c(NP(C)(=O)Oc2ccccc2)c1 (stereo not given)	inactive: 7.83%
Cc1cc(C)cc(OP(C)(=O)Nc2ccc(C)cc2C)c1 (stereo not given)	inactive: -6.72%
CCOC(=O)c1ccc(NP(C)(=O)Oc2cc(C)cc(C)c2)cc1 (stereo not given)	inactive: -4.45%
COc1ccccc1OP(C)(=O)Nc1cccc(Br)c1 (stereo not given)	inactive: -2.56%
COc1cc(C(=O)NCC2(N3CCOCC3)CCCCC2)cc(Cl)c1OC(C)C	inactive: -9.07%
CC1=NCCc2c1[nH]c1ccccc21.O=[N+]([O-])c1cc([N+](=O)[O-])c(O)c([N+](=O)[O-])c1	inactive: -5.28%
O=C(O)c1cccc(Nc2c([N+](=O)[O-])cc([N+](=O)[O-])cc2[N+](=O)[O-])c1	inactive: -2.35%
CCCOc1ccc(NP(C)(=O)Oc2ccc(Cl)cc2)cc1 (stereo not given)	inactive: -12.4%
CP(=O)(Nc1ccc(SC(F)(F)F)cc1)Oc1ccccc1 (stereo not given)	inactive: -4.66%
COc1ccccc1OP(C)(=O)Nc1c(C)cccc1C (stereo not given)	inactive: -4.92%
CN1CCCCC1COC(=O)C1(O)c2ccccc2CCc2ccccc21 (stereo not given)	inactive: -12.9%
CCOC(=O)C(CC)C1=NC(C)(C)Cc2ccccc21.O=[N+]([O-])c1cc([N+](=O)[O-])c(O)c([N+](=O)[O-])c1 (stereo not given)	inactive: -4.41%
CN(C)C1(CNC(=O)c2ccc(S(C)(=O)=O)cc2)CCCCC1	inactive: -2.85%
CC1=C2N=C(C=C3N=C(C(C)=C4[N-][C@@](C)([C@@H]5N=C1[C@](C)(CCC(=O)NC[C@@H](C)OP(=O)([O-])O[C@H]1[C@@H](O)[C@@H](n6cnc7cc(C)c(C)cc76)O[C@@H]1CO)[C@H]5CC(N)=O)[C@@](C)(CC(N)=O)[C@@H]4CCC(N)=O)[C@@](C)(CC(N)=O)[C@@H]3CCC(N)=O)C(C)(C)[C@@H]2CCC(N)=O.[C-]#N.[Co+3]	inactive: -1.37%
O=[N+]([O-])c1cc([N+](=O)[O-])c(Nc2nnnn2CCO)c([N+](=O)[O-])c1	inactive: 2.65%
Cc1nc2ccc3ccccc3c2s1.O=[N+]([O-])c1cc([N+](=O)[O-])c(O)c([N+](=O)[O-])c1	inactive: -4.47%
O=[N+]([O-])c1cc([N+](=O)[O-])c(-c2cnn(-c3ccccc3)c2)c([N+](=O)[O-])c1	inactive: -3.24%
CN(Cc1cccnc1)C(=O)COc1ccc(Cl)c(Cl)c1.O=[N+]([O-])c1cc([N+](=O)[O-])c(O)c([N+](=O)[O-])c1	inactive: 1.35%
O=[N+]([O-])c1cc([N+](=O)[O-])c(-n2nnc3ccccc32)c([N+](=O)[O-])c1	inactive: -0.19%

Reference: PubChem BioAssay AID588814 (The Scripps Research Institute Molecular Screening Center, 2011)
